Where only a bound is given, the exact number is not on record here.

Chains of the proteins cited; added tags and fusions are not shown. Lines headed by an entry give the natural chain unless they say otherwise; changes in a name come on top.
UniProt P11229: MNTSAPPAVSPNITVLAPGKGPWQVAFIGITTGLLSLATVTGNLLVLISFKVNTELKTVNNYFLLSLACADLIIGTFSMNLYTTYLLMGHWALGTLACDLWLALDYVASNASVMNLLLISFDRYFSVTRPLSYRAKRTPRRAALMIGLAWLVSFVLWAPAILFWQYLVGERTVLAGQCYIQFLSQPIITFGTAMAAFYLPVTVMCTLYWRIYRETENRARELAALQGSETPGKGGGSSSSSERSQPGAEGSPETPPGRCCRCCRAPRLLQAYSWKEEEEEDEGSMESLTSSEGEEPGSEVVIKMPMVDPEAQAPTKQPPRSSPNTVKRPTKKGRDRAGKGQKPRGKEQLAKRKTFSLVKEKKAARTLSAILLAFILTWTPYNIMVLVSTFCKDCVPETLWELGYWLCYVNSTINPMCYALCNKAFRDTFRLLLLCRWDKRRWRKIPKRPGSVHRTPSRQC
UniProt P20309, whole entry: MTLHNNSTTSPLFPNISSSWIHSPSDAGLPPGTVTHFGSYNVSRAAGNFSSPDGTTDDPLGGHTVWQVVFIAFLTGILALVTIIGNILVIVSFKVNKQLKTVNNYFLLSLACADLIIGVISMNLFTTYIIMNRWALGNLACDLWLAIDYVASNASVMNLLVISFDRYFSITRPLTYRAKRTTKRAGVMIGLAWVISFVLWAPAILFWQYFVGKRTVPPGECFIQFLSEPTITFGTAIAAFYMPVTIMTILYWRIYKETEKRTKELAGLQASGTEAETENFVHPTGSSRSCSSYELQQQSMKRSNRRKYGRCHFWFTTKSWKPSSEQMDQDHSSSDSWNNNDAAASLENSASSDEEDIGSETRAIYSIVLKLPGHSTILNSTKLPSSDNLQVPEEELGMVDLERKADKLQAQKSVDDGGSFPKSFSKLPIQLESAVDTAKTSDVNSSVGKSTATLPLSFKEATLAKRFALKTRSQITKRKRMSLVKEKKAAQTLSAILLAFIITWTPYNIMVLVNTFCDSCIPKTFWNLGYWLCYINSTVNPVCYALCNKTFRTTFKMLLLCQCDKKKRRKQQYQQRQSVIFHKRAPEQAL

The target of test [1] is Muscarinic acetylcholine receptor M1 (Homo sapiens, UniProt P11229). The test is described as follows: Displacement of [3H]NMS from human muscarinic M1 receptor expressed in CHO cells by microplate scintillation counting. Format: cell-based.
Test [2] addresses Muscarinic acetylcholine receptor M3 (Homo sapiens, UniProt P20309). The test is described as follows: Displacement of [3H]NMS from human muscarinic M3 receptor expressed in CHO cells by microplate scintillation counting. The test is classed as cell-based. In general terms: Loss of bound radioactivity is the signal in a displacement assay; it reports binding, not function.

By Ki is commonly meant a dissociation constant, usually derived from enzyme kinetics or from competition with a known ligand. Turning to `C[C@@H]1COC[C@@H](C[N+](C)(C)C)O1.[I-]`, the values for the Ki in test [1] and in test [2] were above 100 µM and 35.5 µM, respectively.

As to `C[C@H]1COC[C@@H](C[N+](C)(C)C)O1.[I-]` (relative stereo), the Ki in test [1] is 30.2 µM; in test [2] it was 7.59 µM.

Source of the values: ChEMBL document CHEMBL1153096, “Properly substituted 1,4-dioxane nucleus favours the selective M3 muscarinic receptor activation” (Bioorg Med Chem, 2009).
